Biological target: T1, human amyloid-β protein fragment (1–42) (human, UniProt P05067 672-713)
T1 construct: amyloid-β peptide 1-42, cut from the amyloid precursor protein (APP), human; numbers count on: the amyloid-β peptide; coupled covalently to Affi-Gel 10 or, by amine coupling, to a CM5 chip; also called amyloid-β peptide 1–42; amyloid-beta; source: bought: Sigma-Aldrich
Assay: SPR; Biacore 3000, CM5 chip; amyloid-β or actin amine-coupled (100 µg/mL in 10 mM acetate pH 4.0); native or oxidized GAPDH 1–10 µM injected in 50 mM potassium phosphate pH 7.4, 5 µL/min, 5 min; equilibrium responses fitted to a single-site model; also with 0.1 mM isatin or 0.01–5 mM NAD
Conditions: both partners purified

B1: Rabbit muscle glyceraldehyde-3-phosphate dehydrogenase (GAPDH), native (enzyme)
chain: not shown
notes: glyceraldehyde-3-phosphate dehydrogenase (EC 1.2.1.12), rabbit muscle; also called intact GAPDH; native GAPDH; source: purified from rabbit muscle (method of Scopes and Stoter)
Kd: 0.22 ± 0.02 µM

Source: article PMC4307257 (International Journal of Molecular Sciences, 2014)
